## scFv variants of Ab-14 (heavy chain) against a SARS-CoV-2 spike peptide

Data: MIT Lincoln Laboratory AlphaSeq set, Li et al. 2023, doi:10.1038/s41467-023-39022-2, as distributed in FLAb.

Binding partner: SARS-CoV-2 spike HR2 peptide, sequence PDVDLGDISGINAS.

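The starting antibody came from a phage panning campaign against this peptide. These sequences belong to a second round, designed from the earlier measurements on random variants of the parent. Their group label is 14H_GP_Gibbs (GP: Gaussian process model; Gibbs: Gibbs sampling; a sequence that several methods proposed may carry one label only). AlphaSeq pools MATa yeast showing the antibodies with MATalpha yeast showing the peptide. Pairs that bind mate more often; barcode pairs of the diploids are counted by sequencing. Each replicate has its own calibration line, from reference interactions of the BCL2 family. There are six technical replicates.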

Parent scFv Ab-14: VH joined to VL by the linker GGGGSGGGGSGGGGS. Changes lie in the heavy chain CDRs alone.
VH: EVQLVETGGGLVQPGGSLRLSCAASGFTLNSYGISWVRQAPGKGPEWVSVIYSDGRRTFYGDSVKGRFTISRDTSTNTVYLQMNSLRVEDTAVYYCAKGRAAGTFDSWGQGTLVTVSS
VL: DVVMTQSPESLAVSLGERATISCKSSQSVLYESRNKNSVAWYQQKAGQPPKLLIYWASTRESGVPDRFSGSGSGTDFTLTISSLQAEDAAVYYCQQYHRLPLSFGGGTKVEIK

Variants are written as CDR1, CDR2 and CDR3 of the heavy chain (limits as in the source). Parent: GFTLNSYGIS, VIYSDGRRTFYGDSVK, GRAAGTFDS.
Values are log10 of the apparent Kd in nM; lower means stronger binding.
A mean of the replicates is given; it leaves out those without a signal.
"nd" means that the variant was in the library but no mating with the target was seen in that replicate; the authors take this as a sign of poor binding, and no number exists.
The parent sequence was in this pool as ten entries: three were never detected, three once, and four in most replicates, with averages from 0.34 to 2.37.

CDR-H1	CDR-H2	CDR-H3	log10 Kd, replicates	mean, log10 nM	empty controls
GFDLNSYGIS	VIYSDGRRTFYIDEVK	GRTAGTFDS	0.13 -0.02 -0.04 -0.10 -0.11 0.14	0.00	2/18 (3.25)
KFNLNSYGIS	VIYSDGRRTFYIDSVK	GRMAGTFDS	nd nd 3.54 nd 2.14 nd	2.84	0/18
GFDLNSYGIS	VIYSDGRRTFYADSVK	GKTAGTFDA	-0.33 -0.10 -0.39 0.16 -0.11 -0.46	-0.20	2/18 (1.43)
GFELNSYGIS	VIYSDGRRTFYKDSVK	GRTAGTFDQ	nd 0.59 0.58 0.56 1.67 1.27	0.93	0/18
GFDLNSYGIS	VIYSDGRRTFYGDQVK	GMTAGTFDS	0.70 1.36 1.14 1.27 1.41 1.51	1.23	1/18 (2.79)
GFQLNSYGIS	VIYSDGRRTFYQDQVK	GQAAGTFDS	nd nd nd nd nd nd	nd	0/18
GFDLNSYGIS	VIYSDGRRTFYADSVK	GKTAGTFDC	nd nd nd nd 1.06 nd	1.06	0/18
GFELNSYGIS	VIYSDGRRTFYADAVK	GKNAGTFDS	0.88 1.46 0.09 -0.43 -0.02 nd	0.40	0/18
GFTLNSYGIS	VIYSDGRRTFYSDQVK	GKEAGTFDS	1.96 0.63 1.74 0.73 0.52 1.41	1.17	0/18
GFDLNSYGIS	VIYSDGRRTFYGDPVK	GQAAGTFDS	0.67 1.10 0.71 0.80 2.01 nd	1.06	0/18
GFSLNEYGIS	VIYSDGKRTFYGDAVK	GRTAGTFDS	-0.13 -0.28 -0.29 -0.57 -0.28 -0.72	-0.38	1/18 (2.15)
GFDLNSYGIS	VIYSDGRRTFYGDQVK	GQTAGTFDC	nd 2.10 1.69 1.48 nd nd	1.76	0/18
GFDLNSYGIS	VIYSDGRRTFYGDSVK	GQEAGTFDD	0.92 0.83 0.66 0.63 0.80 0.72	0.76	1/18 (3.06)
GFDLNSYGIS	VIYSDGRRTFYGDNVK	GNTAGTFDS	0.15 -0.33 -0.39 -0.33 -0.17 -0.37	-0.24	0/18
GFDLNKYGIS	VIYSDGRRTMYGDSVK	GRQAGTFDS	nd nd nd 0.90 nd nd	0.90	0/18
WFNLNSYGIS	VIYSDGRRTFYADSVK	GNVAGTFDS	nd nd nd nd nd nd	nd	0/18
GFWLNMYGIS	VIYSDGRRTAYGDSVK	GRQAGTFDS	nd nd nd nd nd nd	nd	0/18
GFELNTYGIS	VIYSDGRRTFYADSVK	GRLAGTFDS	-0.16 -0.02 -0.29 -0.13 0.06 -0.18	-0.12	1/18 (1.49)
GFELNEYGIS	VIYSDGRRTFYMDSVK	GRNAGTFDS	0.74 0.51 0.63 0.25 0.58 0.69	0.57	1/18 (2.32)
GFELNSYGIS	VIYSDGRRTMYIDSVK	GRTAGTFDS	1.16 1.53 1.62 0.40 0.73 0.61	1.01	0/18
GKTLNSYGIS	VIYSDGRRTFYGDSVK	GQTAGTFDT	1.54 0.15 0.28 -0.28 0.59 0.63	0.48	0/18
GFELNSYGIS	VIYSDGRRTFYHDSVK	GQEAGTFDS	0.53 0.73 -0.17 -0.06 0.17 0.12	0.22	0/18
GFQLNSYGIS	VIYSDGRRTFYIDSVK	GWAAGTFDS	1.83 1.52 nd nd 1.30 2.04	1.67	0/18
GFNLNSYGIS	VIYSDGRRTFYKDKVK	GQAAGTFDS	0.80 1.50 nd nd nd nd	1.15	0/18
GFVLNSYGIS	VIYSDGRRTFYTDSVK	GRTAGTFDS	nd 2.59 0.78 nd nd nd	1.68	0/18
GFALNEYGIS	VIYSDGRRTFYQDSVK	GRTAGTFDS	0.32 0.30 0.60 0.06 0.74 -0.05	0.33	0/18
GFTLNEYGIS	VIYSDGKRTFYGDSVK	GRYAGTFDS	0.68 0.24 0.92 -0.01 0.11 0.49	0.40	0/18
GFNLNSYGIS	VIYSDGRRTFYQDRVK	GEAAGTFDS	2.64 1.62 2.20 1.61 1.61 1.85	1.92	0/18
GFELNSYGIS	VIYSDGRRTFYSDAVK	GKTAGTFDS	0.20 -0.07 0.13 -0.11 -0.22 0.01	-0.01	1/18 (2.68)
GFELNSYGIS	VIYSDGRRTFYADSVK	GKTAGTFDV	0.30 0.00 0.22 0.32 0.26 0.22	0.22	0/18
GFSLNSYGIS	VIYSDGRRTFYGDDVK	GNVAGTFDK	-0.63 -0.89 -0.71 -0.75 -0.98 -0.74	-0.78	0/18
GFTLKSYGIS	VIYADGRRTFYGDSVK	GKAAGTFDV	-0.34 -0.72 -0.42 -0.06 0.05 0.02	-0.24	0/18
GFNLNSYGIS	VIYSDGRRTFYGDQVK	GRTAGTFDQ	1.36 1.75 3.79 1.94 1.47 2.67	2.16	0/18
GFSLNEYGIS	VIYSDGKRTFYGDSVK	GREAGTFDS	-0.15 -0.11 -0.22 -0.43 0.01 0.23	-0.11	0/18
GFDLNSYGIS	VIYSDGRRTFYGDSVK	GKVAGTFDQ	0.05 0.15 -0.13 -0.37 -0.05 0.08	-0.04	1/18 (1.68)
WFSLNSYGIS	VIYADGRRTFYGDSVK	GQAAGTFDS	nd nd nd 0.76 nd nd	0.76	0/18
GFDLNSYGIS	VIYSDGRRTFYLDRVK	GNAAGTFDS	1.21 nd 1.73 1.79 1.11 0.85	1.34	0/18
GFELNSYGIS	VIYSDGRRTAYGDHVK	GRTAGTFDS	1.26 0.85 0.61 0.55 -0.07 1.47	0.78	0/18
GFNLNSYGIS	VIYSDGRRTFYVDSVK	GHVAGTFDS	1.76 0.92 0.43 0.83 1.44 1.18	1.09	0/18
YKSLNSYGIS	VIYSDGRRTAYGDSVK	GRTAGTFDS	nd nd 2.77 3.50 3.02 nd	3.09	0/18
GFSLNSYGIS	VIYSDGRRTFYADHVK	GKAAGTFDR	nd nd 1.30 2.05 2.20 2.25	1.95	0/18
GFTLNSYGIS	VIYADGRRTFYGDSVK	GTAAGTFDK	-0.09 0.04 -0.27 -0.02 -0.06 -0.01	-0.07	1/18 (2.74)
GFSLNSYGIS	VIYSDGRRTAYQDDVK	GNAAGTFDS	nd nd nd -0.40 nd 0.35	-0.02	0/18
GFQLNSYGIS	VIYSDGRRTAYGDNVK	GRNAGTFDS	0.86 0.50 0.75 0.55 0.87 0.59	0.69	0/18
GFGLNSYGIS	VIYSDGRRTFYVDSVK	GRNAGTFDS	nd 1.91 2.09 1.54 2.02 3.07	2.12	1/18 (1.90)
GFDLNSYGIS	VIYSDGRRTFYIDSVK	GNAAGTFDQ	0.80 0.34 0.80 -0.06 0.43 0.48	0.46	2/18 (3.58)
KFNLNSYGIS	VIYSDGRRTFYVDSVK	GNQAGTFDS	nd nd nd nd nd nd	nd	0/18
GFQLNSYGIS	VIYSDGRRTFYADQVK	GRQAGTFDS	1.30 1.46 1.06 0.85 1.69 1.71	1.35	1/18 (1.08)

Extract of 3 entries:

CDR-H1	CDR-H2	CDR-H3	log10 Kd, replicates	mean, log10 nM	empty controls
KFNLNSYGIS	VIYSDGRRTFYIDSVK	GRMAGTFDS	nd nd 3.54 nd 2.14 nd	2.84	0/18
GFSLNSYGIS	VIYSDGRRTAYQDDVK	GNAAGTFDS	nd nd nd -0.40 nd 0.35	-0.02	0/18
WFSLNSYGIS	VIYADGRRTFYGDSVK	GQAAGTFDS	nd nd nd 0.76 nd nd	0.76	0/18

In the paper, a design with two or fewer of six values counts as a poor binder.
Background: pairings of all heavy chain designs with three empty control strains gave a value in 1% of cases (median 2.08, 5th percentile 0.84). Values in that range, when seen in few replicates, are hard to tell from nonspecific mating. The control count says in how many pairings with the empty strains this scFv gave a signal, with their mean in brackets.
The range of this assay differs from that of the first round, and the authors advise against merging the two.